Article PMC11253858, “New melphalan derivatives for the treatment of retinoblastoma in combination with thermotherapy” (RSC Medicinal Chemistry, 2024)

Tested on: Y79 human retinoblastoma cell line
Assay: Presto blue cell viability assay in Y79 after 24 hours
Assay type: cell-based
Details: Y79, 24 hours
Procedure: The cytotoxicity of melphalan and the melphalan derivatives 3a–3f was evaluated on the Y79 human retinoblastoma cell line in 2D settings using an incubation time of 24 hours at a temperature of 37 °C and 5% CO2, or using conditions mimicking mild hyperthermia, i.e. incubation at 42 °C for 1 hour followed by 23 hours at 37 °C, respectively. The IC50 values were determined using the presto blue cell viability assay (Table 1).
The human retina (RPE1) and retinoblastoma (Y79) cell lines were purchased from ATCC, Switzerland. RPMI 1640, DMEM high glucose Glutamax and DMEM GlutaMAX media were obtained from Life Technologies, and fetal bovine serum (FBS) was obtained from Sigma. Cell culture was performed in RPMI 1640 with 20% FBS and DMEM high glucose Glutamax with 10% FBS for Y79 and RPE1, respectively. […]
For thermal assays, the plates were placed in a heat chamber at 42 °C for 1 h and then transferred to a bioincubator at 37 °C for 71 h where the control plates were already placed. […] Fluorescence was measured using a […]
plate reader (Tecan […] F500 reader, Switzerland) at 560 nm for […] and 590 nm for fluorescence. The normalization of the fluorescence’s intensities was conducted with GraphPad software using Gambogic acid and DMSO as positive and negative control, […]

## Cl.N[C@@H](Cc1ccc(N(CCCl)CCCl)cc1)C(=O)OCCC(F)(F)C(F)(F)C(F)(F)C(F)(F)C(F)(F)C(F)(F)C(F)(F)C(F)(F)C(F)(F)C(F)(F)F [Compound 3f]
  cytotoxicity relative to melphalan (in words): considerably less cytotoxic than melphalan
